Test results: patent US20120077760A1, “NOVEL SALTS OF SITAGLIPTIN” (LEK Pharmaceuticals D.D., priority 2009, published 2012)

Assay: Solubility of sitagliptin salts in water at 25° C.

In the case of “Sitagliptin Hydrogensulfate [Hydrogen sulfate]”, the “solubility in water (in words)” value was “very good” and the Solubility in water (25° C.) was greater than 300 mg/mL.
